The entries are a selection whose mix differs from that of the whole data set. The source made the active and inactive calls. Rule as the data show it: active = activation mostly above about 9.5% (no sharp cut-off); inactive = mostly below about 7.6%.

By UniProt entry, the sequences of proteins in these tests, tags left out.
UniProt P47898, whole entry, looked up: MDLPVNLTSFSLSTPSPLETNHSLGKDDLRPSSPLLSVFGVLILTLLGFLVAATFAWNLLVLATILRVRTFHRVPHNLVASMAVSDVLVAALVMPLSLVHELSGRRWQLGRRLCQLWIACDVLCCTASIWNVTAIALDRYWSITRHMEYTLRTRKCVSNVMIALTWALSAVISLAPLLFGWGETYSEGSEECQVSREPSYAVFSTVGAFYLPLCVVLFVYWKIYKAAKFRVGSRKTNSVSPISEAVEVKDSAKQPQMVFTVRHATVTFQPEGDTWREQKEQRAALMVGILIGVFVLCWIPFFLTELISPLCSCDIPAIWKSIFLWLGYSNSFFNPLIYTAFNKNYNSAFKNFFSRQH

The text below walks through data of PubChem BioAssay AID504692 (The Scripps Research Institute Molecular Screening Center, 2011).

In the assay the target is 5-hydroxytryptamine receptor 5A (Homo sapiens) (UniProt P47898). The experiment in a line: HTR5A agonists in luminescence cell assay, primary screen, counter-screen for OPRM1-OPRD1 heterodimer agonist project, full-deck HTS (AID 504692).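 Also: 0% = cells with vehicle only and 100% = reference agonist.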 As to conditions: cell-based, at 9.3 µM, stronger effect = higher value. For orientation: Counterscreens check selectivity or assay interference.
Consider `Cc1ccc2c(c1)C1CN(C)CCC1N2C(=O)c1cccc(S(=O)(=O)N2CC(C)CC(C)C2)c1` (centres undefined), for which the activation is inactive: -3.68%.
Regarding `O=C(CCNC(=O)N1CCn2c1nc1ccccc12)NCc1ccccc1`, the activation is inactive: 0.46%.
For the compound `Cc1ccc(NC(=O)C2CC(=O)Nc3nc4ccccc4n32)c(C)c1` (centres undefined), the activation was inactive: -4.94%.
For `COc1ccccc1C(=O)Nc1ccc2c(c1)nc1n2CCN(Cc2ccccc2)C1`, the activation was inactive: 2.33%.
Take `CCN(CC)c1ccc(CNc2nc3ccccc3n2CCN2CCCCC2)cc1`: the activation is inactive: -3.91%.
Regarding `Cn1c(=O)c2ncn(CC(=O)N/N=C/C=C/c3ccccc3)c2n(C)c1=O`, the activation was inactive: -0.03%.
On to `CCN(CC)CCn1c(NCc2ccco2)nc2ccccc21`, for which the activation was inactive: -1.56%.
Turning to `CS(=O)(=O)N1CCn2c1nc1ccccc12`, the activation was inactive: 0.17%.
Next, `Cc1nc2ccccc2n1CC(=O)N/N=C\C=C\c1ccccc1`: inactive: -1.84%.
Regarding `COc1cccc(NC(=S)N2CCn3c(nc4ccccc43)C2)c1`, the activation is inactive: 4.65%.
Next, `COC(=O)[C@H](Cc1ccccc1)NC(=O)Cn1cnc2c(OCc3ccccc3)ncnc21`: inactive: 0.31%; `N=c1n(CCN2CCCCC2)c2ccccc2n1CC(O)c1cccc(Br)c1` (centres undefined): inactive: -9.77%; `Cc1ccc(OCC(O)Cn2c(=N)n(CCN3CCCCC3)c3ccccc32)cc1` (centres undefined): inactive: 5.12%.
On to `CC(C)C[C@H](NC(=O)N1CCn2c1nc1ccccc12)C(=O)NCc1ccc2c(c1)OCO2`, for which the activation is inactive: -0.79%.
For `Cn1c(=O)n(Cc2ccccc2F)c(=O)c2c1nc1n2CCN1Cc1ccco1` the value was inactive: -0.45%; for `CCc1cccc(NC(=O)Cn2c3[n+](c4ccc(C(F)(F)F)cc42)CCCCC3)c1`, inactive: 1.99%.
With `NC(=O)CC(NC(=O)Cc1ccc(Cl)cc1)c1ccc(NC2CCN(Cc3ccccc3)CC2)c([N+](=O)[O-])c1` (centres undefined), the activation is inactive: -2.09%.
In the case of `CC1CN(C(=O)Cn2c(C(F)(F)F)nc3ccccc32)CC(C)O1` (centres undefined), the activation was inactive: -3.82%.
For `O=C(CCCCCNC(=O)N1CCn2c1nc1ccccc12)N[C@H](Cc1ccccc1)C(=O)O` the value was inactive: 3.77%; for `CC(CNC(=O)Cn1cnc2c(OCc3ccccc3)ncnc21)c1ccccc1` (centres undefined), inactive: 2.19%.
For the compound `c1coc(CNc2nc3ccccc3n2CCN2CCOCC2)c1`, the activation was inactive: -2.21%.
For `Brc1ccc(/C=N/c2nc3ccccc3n2CCN2CCOCC2)cc1` the value was inactive: -0.29%; for `CC(C)CN(C(=O)Cn1c(C(F)(F)F)nc2ccccc21)c1c(N)n(Cc2ccccc2)c(=O)[nH]c1=O`, inactive: 2.71%.
Next, `COCCN(C(=O)Cn1c(C(F)(F)F)nc2ccccc21)c1c(N)n(Cc2ccccc2)c(=O)[nH]c1=O`: inactive: -3.4%.
On to `O=C(Cn1cnc2c(OCc3ccccc3)ncnc21)NCCc1c[nH]c2ccccc12`, for which the activation is inactive: 2.2%.
In the case of `CN(C)CCCNC(=S)N1CCn2c(nc3ccccc32)C1`, the activation is inactive: 10.4%.
Regarding `Fc1ccc(Cn2nnnc2CN2CCC(n3nnc4cc(C(F)(F)F)ccc43)CC2)cc1`, the activation was inactive: -1.58%.
For `CC1(CBr)Cn2c(nc3ccccc3c2=O)S1` (centres undefined) the value was inactive: -2.19%; for `O=C(Nc1nc2ccccc2n1CCN1CCOCC1)c1ccc(COc2ccccc2Br)o1`, inactive: -0.18%; for `CCC(=O)Nc1ccc2c(c1)nc1n2CCN(C2CCCCC2)C1`, inactive: -2.91%.
Take `CN(C(=O)Cc1ccc(Cl)c(Cl)c1)[C@@H]1CCCC[C@H]1N1CCCC1`: the activation was inactive: 1.73%.
`COc1ccc(CCNC(=O)CCCCCNC(=O)N2CCn3c2nc2ccccc23)cc1OC`: the activation was inactive: -2.93%.
For `CC(C)/C=N\N=C(\N)N[N+](=O)[O-]` the value was inactive: -8.02%; for `O=C(Cn1c(COc2ccc(Cl)cc2)nc2ccccc21)NCC(F)(F)F`, inactive: -7.12%.
Take `CCN(CC)CCn1c(NC(=O)c2ccc(C)cc2)nc2ccccc21`: the activation is inactive: -4.84%.
For `C[C@H](O)[C@@H]1C(=O)N2CCc3ccc(-c4cccc(F)c4)cc3[C@@H]2C[C@@H]1N(C)C(=O)C(C)(C)C`, the activation is inactive: -3.52%.
Next, `O=C(Cn1c(CO)nc2ccccc21)NCc1ccc2c(c1)OCO2`: inactive: 2.65%.
Take `COC(=O)[C@H](CCSC)NC(=O)Cn1cnc2c(OCc3ccccc3)ncnc21`: the activation is inactive: -0.42%.
For `Cc1cccc(N2CCN(C(=O)Cn3cnc4c3c(=O)n(C)c(=O)n4C)CC2)c1C`, the activation was inactive: 0.26%.
For `CCOC(=O)c1ccc(NC(=O)Cn2cnc3cc(C)c(C)cc32)cc1` the value was inactive: 4.83%; for `CCOc1ccc(C(=O)N2CCn3c2nc2ccccc23)cc1`, inactive: 2.15%.
With `Cc1ccc(-c2nc(N(C)C3CCN(C)CC3)c3ccccc3n2)cc1`, the activation was inactive: 0.35%.
Take `CCOC(=O)Cc1csc(NC(=O)Cn2cnc3c2c(=O)n(C)c(=O)n3C)n1`: the activation was inactive: -0.9%.
On to `CNC(=O)Cn1c(=O)n(C)c2ccccc21`, for which the activation is inactive: -4.15%.
As for `CC1c2nc3ccccc3n2C(CC(=O)NC2CC2)C(=O)N1Cc1ccccc1` (centres undefined), the activation is inactive: 2.41%.
As to `CSc1nc(N)nc2c1ncn2CC(=O)NCCNc1ccc([N+](=O)[O-])cn1`, the activation is inactive: 0.41%.
For the compound `CCOP(=O)(Nc1ccc(C)cn1)OCC`, the activation is inactive: -0.83%.
Consider `CCN1C(=O)CC(N2CCC(Nc3ccc(F)cc3)CC2)C1=O` (centres undefined), for which the activation was inactive: 0.05%.
`CC(c1ccccc1)N1CCn2c(nc3cc(NC(=O)NC4CCCCC4)ccc32)C1` (centres undefined): the activation was inactive: 1.46%.
For `CC(C)NC(=O)CSc1nc2ccccc2n1CC(=O)N1CCc2ccccc21` the value was inactive: -0.55%; for `CN(C)C1(c2nnnn2CCOC(=O)Nc2ccc(Cl)cc2)CCCCC1`, inactive: 9.89%; for `CC(C)C[C@H](NC(=O)N1CCn2c1nc1ccccc12)C(=O)N[C@@H](C(=O)O)c1ccccc1`, inactive: 3.1%.
Turning to `CCC1=CC2Cc3nc4ccc(Cl)cc4c(N)c3C(C1)C2` (centres undefined), the activation was inactive: -0.06%.
Consider `COc1cccc(CNC(=O)CCCCCNC(=O)N2CCn3c2nc2ccccc23)c1`, for which the activation was inactive: 0.44%.
With `O=P1(Nc2ccccn2)COc2ccccc2OC1`, the activation was inactive: -1.81%.
For `Cn1c(=O)c2c(ncn2CC(=O)N2CCCc3ccccc32)n(C)c1=O`, the activation is inactive: -5.24%.
Next, `O=C(Cn1c(-c2cscn2)nc2ccccc21)Nc1ccc2ccccc2c1`: inactive: 1.8%; `CC(NC(=O)Cn1c(NCCO)nc2ccccc21)C1CC2CCC1C2` (centres undefined): inactive: -3.72%; `O=C(Cn1c(NCCO)nc2ccccc21)NCCc1ccc(F)cc1`: inactive: -5.49%.
In the case of `CCN(CC)CCn1c(NCc2cccc(OC)c2)nc2ccccc21`, the activation was inactive: 3.41%.
Next, `CC(C)(C)NC(=O)Cn1c(=O)n(CC(=O)NC(C)(C)C)c2ccccc21`: inactive: -3.54%; `CCOP(=O)(NC(=NC(C)c1ccccc1)NC(C)c1ccccc1)OCC` (centres undefined): inactive: 8.08%; `CCCCNC(=O)CC1C(=O)N(Cc2ccccc2)C(C)c2nc3ccccc3n21` (centres undefined): inactive: 0.81%.
`O=C(Cn1c(SCc2ccccc2)nc2ccccc21)N1CCOCC1`: the activation is inactive: -2.67%.
In the case of `Cn1c(=O)c2c(ncn2CC(=O)N2CCN(c3ccc(F)cc3)CC2)n(C)c1=O`, the activation was inactive: -0.91%.
For `COc1ccc(/C=N/NC(=O)Cn2c(Cc3ccc(OC)c(OC)c3)nc3ccccc32)cc1OC` the value was inactive: -2.26%.
Regarding `Clc1n[nH]nc1-c1nn[nH][15n]1`, the activation is inactive: -5.03%.
Consider `NNC(=O)Cn1c(-c2nonc2N)nc2ccccc21`, for which the activation is inactive: 4.44%.
Regarding `Cc1ccc(CSc2nc3ccncc3n2CC(=O)Nc2cc(C)cc(C)c2)cc1`, the activation is inactive: 7.63%.
On to `COc1ccc(CNC(=O)Cn2cnc3c(SC)nc(N)nc32)cc1`, for which the activation is inactive: 2.17%.
For `O=C(Cn1c(C(F)(F)F)nc2ccccc21)Nc1ccccc1C(=O)O` the value was inactive: -3.74%.
For `CN(C)CCn1c(NC(=O)c2ccc(Cl)cc2)nc2ccccc21`, the activation is inactive: 5.64%.
In the case of `COc1ccc(OCC(O)Cn2c(=N)n(CCN3CCOCC3)c3ccccc32)cc1` (centres undefined), the activation was inactive: 1.05%.
Consider `Cc1cc(C)cc(NC(=O)Cn2c(-c3ccccc3Cl)nc3ccccc32)c1`, for which the activation was inactive: 1%.
Consider `O=C(NCCn1c(C(F)(F)F)nc2cc(C(F)(F)F)ccc21)[C@H]1CCCN1c1nc(CN2CCCCC2)cs1`, for which the activation was inactive: 6.27%.
Turning to `C[C@H](O)[C@@H]1C(=O)N2CCc3ccc(N4CCOCC4)cc3[C@@H]2C[C@@H]1N(C)C(=O)C(C)(C)C`, the activation is inactive: -3.22%.
Next, `Cn1c(=O)c2c(ncn2CC(=O)Nc2nnc(Cc3ccccc3)s2)n(C)c1=O`: inactive: -1.33%; `CCCC(=O)Nc1nnc(/C=C/c2ccccc2)s1`: inactive: 1.86%; `Cn1c(=O)c2ncn(CC(=O)Nc3cc(C(F)(F)F)ccc3N3CCOCC3)c2n(C)c1=O`: inactive: -3.52%.
Regarding `CC(C)(C)C(=O)NC(Sc1ncccn1)C(Cl)(Cl)Cl` (centres undefined), the activation is inactive: 5.08%.
Next, `S=C(Nc1ccccc1)N1CCn2c(nc3ccccc32)C1`: inactive: 0.79%; `Brc1cccc(CNc2nc3ccccc3n2CCN2CCOCC2)c1`: inactive: 2.18%.
As to `Cc1ccc(CNC(=O)CCCCCNC(=O)N2CCn3c2nc2ccccc23)cc1`, the activation was inactive: 0.61%.
For `CCOCCn1c(=O)c2c(nc3n2CCN3c2ccc(CC)cc2)n(C)c1=O` the value was inactive: 3.92%.
As to `COc1cc(Cl)c(C)cc1NC(=O)Cn1c(NCCO)nc2ccccc21`, the activation was inactive: 4.92%.
Next, `Cc1cc(N2C(=O)CC(N3CCC(n4c(=O)[nH]c5ccccc54)CC3)C2=O)no1` (centres undefined): inactive: 3.21%; `CC(C)NC(=O)Cn1c(SCC(=O)N2CCc3ccccc3C2)nc2ccccc21`: inactive: -0.1%.
For `Cc1ccc2c(c1)C1CN(C)CCC1N2C(=S)Nc1cccnc1` (centres undefined) the value was inactive: -0.06%.
On to `FC(F)(F)c1cccc(-n2nnnc2C2(N3CCOCC3)CCCCC2)c1`, for which the activation was inactive: -0.94%.
